Measurements taken from US10040788B2, “1,3,4-thiadiazole compounds and their use in treating cancer” (AstraZeneca AB, priority 2014, dated 2018).

By UniProt entry, the sequences of proteins in these tests, tags left out. Residues count along the entry.
UniProt O94925, 63-669: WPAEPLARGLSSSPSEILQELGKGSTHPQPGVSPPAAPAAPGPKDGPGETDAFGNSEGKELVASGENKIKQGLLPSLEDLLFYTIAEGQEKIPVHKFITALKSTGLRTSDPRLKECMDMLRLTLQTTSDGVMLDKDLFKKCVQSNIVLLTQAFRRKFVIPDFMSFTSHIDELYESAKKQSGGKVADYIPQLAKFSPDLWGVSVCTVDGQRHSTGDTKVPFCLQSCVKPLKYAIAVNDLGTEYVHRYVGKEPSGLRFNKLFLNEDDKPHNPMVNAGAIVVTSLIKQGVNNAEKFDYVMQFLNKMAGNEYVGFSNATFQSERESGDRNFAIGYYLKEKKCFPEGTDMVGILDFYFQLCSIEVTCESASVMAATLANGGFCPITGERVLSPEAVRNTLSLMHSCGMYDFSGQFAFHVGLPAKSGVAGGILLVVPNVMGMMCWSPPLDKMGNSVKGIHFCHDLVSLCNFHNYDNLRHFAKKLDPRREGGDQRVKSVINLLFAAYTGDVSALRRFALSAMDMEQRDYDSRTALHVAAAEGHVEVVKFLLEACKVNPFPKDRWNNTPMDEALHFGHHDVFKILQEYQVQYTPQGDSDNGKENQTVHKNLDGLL
UniProt O94925, 55-669: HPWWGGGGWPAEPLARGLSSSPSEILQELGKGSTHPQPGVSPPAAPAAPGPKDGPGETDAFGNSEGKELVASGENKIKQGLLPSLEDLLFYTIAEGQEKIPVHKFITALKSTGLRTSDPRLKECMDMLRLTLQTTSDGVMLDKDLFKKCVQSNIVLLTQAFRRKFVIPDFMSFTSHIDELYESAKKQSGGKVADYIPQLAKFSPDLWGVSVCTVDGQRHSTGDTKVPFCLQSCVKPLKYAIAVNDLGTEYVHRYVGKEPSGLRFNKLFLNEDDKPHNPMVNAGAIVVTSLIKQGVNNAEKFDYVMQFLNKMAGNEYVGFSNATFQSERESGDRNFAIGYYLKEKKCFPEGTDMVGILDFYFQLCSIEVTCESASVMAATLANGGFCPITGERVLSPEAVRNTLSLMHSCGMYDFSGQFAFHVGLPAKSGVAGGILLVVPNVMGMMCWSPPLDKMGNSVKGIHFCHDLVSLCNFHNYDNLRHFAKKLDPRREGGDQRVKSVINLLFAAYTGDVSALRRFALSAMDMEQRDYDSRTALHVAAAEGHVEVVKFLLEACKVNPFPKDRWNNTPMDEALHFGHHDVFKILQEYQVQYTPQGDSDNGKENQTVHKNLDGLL

Key:
[1] = target: GLS1 (Homo sapiens (Human), UniProt O94925); assay: GLS Enzyme Potency Assay (Glutamate Oxidase/AmplexRed coupled assay); assay type: biochemical; conditions: 6His tagged GLS protein (amino acids 63-669); geometric mean where repeated
From the text: (§1) The following assays were used to measure the effects of the compounds of the present invention: a) GLS Enzyme Potency Assay; b) GLS Cell Potency Assay; c) GLS Cell Proliferation Assay; and d) Mouse Xenograft Model. During the description of the assays, generally: • i. The following abbreviations have been used: CO2=Carbon dioxide; DMEM=Dulbecco's Modified Eagle Medium; DMSO=Dimethyl sulphoxide; EDTA=Ethylenediaminetetraacetic acid; EGTA=Ethylene glycol tetraacetic acid; FCS=Foetal calf serum; h=Hour(s); NBS=Non-binding surface; SDS=Sodium dodecyl sulphate; r.t.=room temperature; TRIS=Tris(Hydroxymethyl)aminomethane. • ii. IC50 values were calculated using a smart fitting model in Genedata. […] Assay a): GLS Enzyme Potency Assay
A Glutamate Oxidase/AmplexRed coupled assay was used to measure the ability of compounds to bind to and inhibit the activity of GLS1 in vitro. […] GLS1 was diluted to 2× working concentration and incubated at r.t. to allow the tetrameric/dimeric forms to reach steady state. Assay measurements were performed in buffer comprising 50 mM TRIS pH 7.8, 100 mM NaPO4, pH 7.8, 0.001% v/v Tween20. […] DMSO concentration was maintained at 2% by back filling with DMSO solution. […] 3 μL of 100 mM glutamine diluted in assay buffer was then added and the reaction incubated at r.t. for 60 minutes. […] An artefact version of the assay where the 6His tagged GLS protein and glutamine were replaced with assay buffer was also used to rule out non specific effects on the assay components.

[2] = target: cellular GLS activity (Homo sapiens (Human), UniProt O94925); assay: GLS Cell Potency Assay (PC3 coupled assay measuring cellular glutamate depletion); assay type: cell-based; conditions: PC3 cells, 6 h incubation, cellular glutamate depletion; geometric mean where repeated; read-out: Assay b) GLS Cell Potency Assay IC50
From the text: The following assays were used to measure the effects of the compounds of the present invention: a) GLS Enzyme Potency Assay; b) GLS Cell Potency Assay; c) GLS Cell Proliferation Assay; and d) Mouse Xenograft Model. During the description of the assays, generally: • i. The following abbreviations have been used: CO2=Carbon dioxide; DMEM=Dulbecco's Modified Eagle Medium; DMSO=Dimethyl sulphoxide; EDTA=Ethylenediaminetetraacetic acid; EGTA=Ethylene glycol tetraacetic acid; FCS=Foetal calf serum; h=Hour(s); NBS=Non-binding surface; SDS=Sodium dodecyl sulphate; r.t.=room temperature; TRIS=Tris(Hydroxymethyl)aminomethane. • ii. […]
Compounds were assessed for their potential to inhibit cellular GLS activity by use of a PC3 coupled assay measuring cellular glutamate depletion. […] DMSO concentration was maintained at 0.3% by back filling with DMSO solution. PC3 cells were grown in phenol free DMEM, 10% dialyzed FCS, 2 mM glutamine and following dispersal by trypsinisation were plated at 5.6×10^3 cells per well in 40 μl of growth medium directly into the 384 well assay plates containing dispensed compound. After incubation for 6 h at 37° C., 5% CO2 growth media was aspirated and cells lysed in 15 μl of buffer containing 10 mM TRIS pH7.4, 100 mM NaCl, 1 mM EDTA, 1 mM EGTA, 1 mM NaF, 20 mM Na4P2O7, 2 mM Na3VO4, 1% Triton X-100, 10% glycerol, 0.1% SDS and 0.5% deoxycholate.

[3] = tested on: NCI-H1703 cells; assay: GLS Cell Proliferation Assay (NCI-H1703); assay type: cell-based; conditions: Homo sapiens, 120 h; NCI-H1703 cells, 5 days incubation; geometric mean where repeated; read-out: Assay c) GLS Cell Proliferation Assay
From the text: as §1, with “Where multiple repeat tests were carried out on a given Example, the result reported is the geometric mean. […]” for “Assay a): GLS Enzyme Potency Assay”
The ability of compounds to inhibit cell growth was measured using a 384 well plate NCI-H1703 cell proliferation assay. […] Plates were read on an Acumen eX3 (TTP Labtech) using 488 nm excitation and FITC filter set (500-530 nm) for emission. IC50 values were calculated by curve fitting to max inhibition of day zero growth using GeneData software analysis.

For `CO[C@H](C(=O)Nc1nnc(N[C@@H]2CCN(c3nccnn3)C2)s1)c1ccc(F)cc1` [17(a), (2S)-2-(4-fluorophenyl)-2-methoxy-N-[5-[[(3R)-1-(1,2,4-triazin-3-yl)pyrrolidin-3-yl]amino]-1,3,4-thiadiazol-2-yl]acetamide], the IC50 [1] was 2190 nM and the IC50 [2] was 175 nM.

Work on `CO[C@@H](C(=O)Nc1nnc(N[C@@H]2CCN(c3nccnn3)C2)s1)c1ccc(F)cc1` [17(b), (2R)-2-(4-fluorophenyl)-2-methoxy-N-[5-[[(3R)-1-(1,2,4-triazin-3-yl)pyrrolidin-3-yl]amino]-1,3,4-thiadiazol-2-yl]acetamide] yielded an IC50 [1] of 92.6 nM and an IC50 [2] of 5.95 nM.

`CO[C@H](C(=O)Nc1nnc(N[C@@H]2CCN(c3cncnn3)C2)s1)c1cccc(OC(F)(F)F)c1` [22(a), (2S)-2-methoxy-N-[5-[[(3R)-1-(1,2,4-triazin-6-yl)pyrrolidin-3-yl]amino]-1,3,4-thiadiazol-2-yl]-2-[3-(trifluoromethoxy)phenyl]acetamide] gave an IC50 [1] of 72.9 nM and an IC50 [2] of 1.5 nM.

For `CO[C@@H](C(=O)Nc1nnc(N[C@@H]2CCN(c3cncnn3)C2)s1)c1cccc(OC(F)(F)F)c1` [22(b), (2R)-2-methoxy-N-[5-[[(3R)-1-(1,2,4-triazin-6-yl)pyrrolidin-3-yl]amino]-1,3,4-thiadiazol-2-yl]-2-[3-(trifluoromethoxy)phenyl]acetamide], the IC50 [1] was 43.4 nM, the IC50 [2] was 0.206 nM and the IC50 [3] was 0.729 nM.

Work on `CO[C@H](C(=O)Nc1nnc(N[C@@H]2CCN(c3cncnn3)C2)s1)c1cccc(OC(F)F)c1` [23(a), (2S)-2-[3-(difluoromethoxy)phenyl]-2-methoxy-N-[5-[[(3R)-1-(1,2,4-triazin-6-yl)pyrrolidin-3-yl]amino]-1,3,4-thiadiazol-2-yl]acetamide] yielded an IC50 [1] of 27.6 nM.

With `CO[C@@H](C(=O)Nc1nnc(N[C@@H]2CCN(c3cncnn3)C2)s1)c1cccc(OC(F)F)c1` [23(b), (2R)-2-[3-(difluoromethoxy)phenyl]-2-methoxy-N-[5-[[(3R)-1-(1,2,4-triazin-6-yl)pyrrolidin-3-yl]amino]-1,3,4-thiadiazol-2-yl]acetamide] the IC50 [1] was 162 nM.

Compound `COc1ccc([C@H](OC)C(=O)Nc2nnc(N[C@@H]3CCN(c4nccnn4)C3)s2)cc1OC` [26(a), (2S)-2-(3,4-dimethoxyphenyl)-2-methoxy-N-[5-[[(3R)-1-(1,2,4-triazin-3-yl)pyrrolidin-3-yl]amino]-1,3,4-thiadiazol-2-yl]acetamide] has an IC50 [1] of 2270 nM and an IC50 [2] of 221 nM.

Compound `COc1ccc([C@@H](OC)C(=O)Nc2nnc(N[C@@H]3CCN(c4nccnn4)C3)s2)cc1OC` [26(b), (2R)-2-(3,4-dimethoxyphenyl)-2-methoxy-N-[5-[[(3R)-1-(1,2,4-triazin-3-yl)pyrrolidin-3-yl]amino]-1,3,4-thiadiazol-2-yl]acetamide] has an IC50 [1] of 87.7 nM and an IC50 [2] of 3.37 nM.

For `CCO[C@H](C(=O)Nc1nnc(N[C@@H]2CCN(c3cccnn3)C2)s1)c1ccc(OC)cc1` [28(a), (2S)-2-ethoxy-2-(4-methoxyphenyl)-N-[5-[[(3R)-1-pyridazin-3-ylpyrrolidin-3-yl]amino]-1,3,4-thiadiazol-2-yl]acetamide], the IC50 [1] was 34.1 nM.

`CCO[C@@H](C(=O)Nc1nnc(N[C@@H]2CCN(c3cccnn3)C2)s1)c1ccc(OC)cc1` [28(b), (2R)-2-ethoxy-2-(4-methoxyphenyl)-N-[5-[[(3R)-1-pyridazin-3-ylpyrrolidin-3-yl]amino]-1,3,4-thiadiazol-2-yl]acetamide] gave an IC50 [1] of 84.8 nM.

Work on `CCO[C@H](C(=O)Nc1nnc(N[C@@H]2CCN(c3cccnn3)C2)s1)c1cccc(OC)c1` [30(a), (2S)-2-ethoxy-2-(3-methoxyphenyl)-N-[5-[[(3R)-1-pyridazin-3-ylpyrrolidin-3-yl]amino]-1,3,4-thiadiazol-2-yl]acetamide] yielded an IC50 [1] of 92.8 nM and an IC50 [2] of 6.74 nM.

In the case of `CCO[C@@H](C(=O)Nc1nnc(N[C@@H]2CCN(c3cccnn3)C2)s1)c1cccc(OC)c1` [30(b), (2R)-2-ethoxy-2-(3-methoxyphenyl)-N-[5-[[(3R)-1-pyridazin-3-ylpyrrolidin-3-yl]amino]-1,3,4-thiadiazol-2-yl]acetamide], the IC50 [1] is reported as 21 nM and the IC50 [2] is reported as 0.419 nM.

`CO[C@H](C(=O)Nc1nnc(N[C@@H]2CCN(c3cccnn3)C2)s1)c1cccc(OC(F)F)c1` [Example 7(a), (2S)-2-[3-(Difluoromethoxy)phenyl]-2-methoxy-N-[5-[[(3R)-1-pyridazin-3-ylpyrrolidin-3-yl]amino]-1,3,4-thiadiazol-2-yl]acetamide] gave an IC50 [1] of 14.8 nM and an IC50 [2] of 0.55 nM.

For `CO[C@@H](C(=O)Nc1nnc(N[C@@H]2CCN(c3cccnn3)C2)s1)c1cccc(OC(F)F)c1` [Example 7(b), (2R)-2-[3-(Difluoromethoxy)phenyl]-2-methoxy-N-[5-[[(3R)-1-pyridazin-3-ylpyrrolidin-3-yl]amino]-1,3,4-thiadiazol-2-yl]acetamide], the IC50 [1] was 27.1 nM and the IC50 [2] was 3.8 nM.

For `CO[C@H](C(=O)Nc1nnc(N[C@@H]2CCN(c3nccnn3)C2)s1)c1cccc(OC(F)(F)F)c1` [Example 8(a), (2S)-2-Methoxy-N-[5-[[(3R)-1-(1,2,4-triazin-3-yl)pyrrolidin-3-yl]amino]-1,3,4-thiadiazol-2-yl]-2-[3-(trifluoromethoxy)phenyl]acetamide], the IC50 [1] was 30.6 nM and the IC50 [2] was 1.3 nM.

Compound `CO[C@@H](C(=O)Nc1nnc(N[C@@H]2CCN(c3nccnn3)C2)s1)c1cccc(OC(F)(F)F)c1` [Example 8(b), (2R)-2-Methoxy-N-[5-[[(3R)-1-(1,2,4-triazin-3-yl)pyrrolidin-3-yl]amino]-1,3,4-thiadiazol-2-yl]-2-[3-(trifluoromethoxy)phenyl]acetamide] has an IC50 [1] of 221 nM and an IC50 [2] of 29 nM.

In the case of `CO[C@H](C(=O)Nc1nnc(N[C@@H]2CCN(c3cccnn3)C2)s1)c1ccc(F)cc1` [Example 12(a), (2S)-2-(4-Fluorophenyl)-2-methoxy-N-[5-[[(3R)-1-pyridazin-3-ylpyrrolidin-3-yl]amino]-1,3,4-thiadiazol-2-yl]acetamide], the IC50 [1] is reported as 22 nM.

`CO[C@@H](C(=O)Nc1nnc(N[C@@H]2CCN(c3cccnn3)C2)s1)c1ccc(F)cc1` [Example 12(b), (2R)-2-(4-Fluorophenyl)-2-methoxy-N-[5-[[(3R)-1-pyridazin-3-ylpyrrolidin-3-yl]amino]-1,3,4-thiadiazol-2-yl]acetamide] was tested, and the IC50 [1] was 102 nM.
